Measured values as given in patent US11000601B2, “Conjugated biological molecules, pharmaceutical compositions and methods” (OBI Pharma, Inc., priority 2016, dated 2021).
Where “and” joins values, the source holds several entries; their conditions need not be identical. Equal values may be shown once.

Legend:
[1] = Body weight, mortality and signs of overt toxicity in MCF-7 implanted female nude (nu/nu) mice; format: in vivo, mouse
Description: In a xenograft tumor model of human breast adenocarcinoma, MCF-7 (ATCC HTB-22) cells were subcutaneously (SC) implanted (2.0×10^7 cells in 1:1 matrigel/media mixture at 0.2 mL/mouse) into the right flank of female athymic (nu/nu) nude mice. Supplemental injections of estradiol cyclopentyl propionate (100 μg/mouse) were administered subcutaneously between the scapulae twice weekly, from one week prior to cell implantation to study completion. Tumor-implanted mice were divided into eleven treatment groups, each group containing six animals, and test agent administrations were initiated one day after cell implantation (denoted as Day 1). 3.1 Test Substances and Dosing Pattern
Two control groups received intravenous injections of vehicle (25 mM Sodium Citrate, pH 6.5+100 mM NaCl) once weekly for either six weeks (group 1) or two weeks (group 2). […] Test substance, OBI-888, was dosed at 10 mg/kg once weekly for 2 weeks, and at 0.3, 1 and 3 mg/kg once weekly for six weeks. Test substance, MMAE, was dosed at 0.057 mg/kg once weekly for six weeks.
Female (nu/nu) nude mice aged 6-7 weeks obtained from BioLasco Taiwan (under Charles River Laboratories Licensee) were used. The animals were housed in individually ventilated cages (IVG, 36 Mini Isolator System). The allocation for 3-5 animals was 27×20×14 in cm. All animals were maintained in a hygienic environment under controlled temperature (20-24° C.) and humidity (30-70%) with 12-hour light/dark cycle. Free access to standard lab diet (Oriental Yeast Co., Ltd., Japan) and autoclaved tap water were granted. All aspects of this work including housing, experimentation, and animal disposal were performed in general accordance with the “Guide for the Care and Use of Laboratory Animals: Eighth Edition” (National Academies Press, Washington, D.C., 2011) in our AAALAC-accredited laboratory animal facility. In addition, the animal care and use protocol was reviewed and approved by the IACUC at Eurofins Panlabs Taiwan, Ltd.
The tumor volumes, body weights, mortality, and signs of overt toxicity were monitored and recorded twice weekly for 77 days. Tumor volume (mm^3) was calculated according to the formula for a prolate ellipsoid: length (mm)×[width (mm)]^2×0.5. Tumor growth inhibition was calculated as T/C (treatment/control)×100%. A T/C value≤42% was considered significant anti-tumor activity. Two-way ANOVA followed by Bonferroni test was used to ascertain the statistical significance of groups compared to respective vehicle control (*p<0.05).

[2] = Body weight, mortality and signs of overt toxicity in NCI-N87 implanted female nu/nu mice; format: in vivo, mouse; conditions: 0.191 mg/kg × 4 IP once weekly; group mean
Description: In a xenograft tumor model of human gastric carcinoma, viable NCI-N87 (ATCC CRL-5822) cells were subcutaneously (SC) implanted (2.5×10^6 cells/mL with matrigel (1:1) at 0.2 mL/mouse) into the right flank of female nu/nu mice. Tumor implanted mice were divided into seven treatment groups, each group containing eight animals, and one group containing five animals, and dose administrations were initiated one day after cell implantation (denoted as Day 1).
Female nude (nu/nu) mice aged 5-6 weeks obtained from BioLasco Taiwan (under Charles River Laboratories Licensee) were used. The animals were housed in individually ventilated cages (IVC, 36 Mini Isolator system). The allocation for 3 animals was 27×20×14 in cm. All animals were maintained in a hygienic environment under controlled temperature (20-24° C.) and humidity (30%-70%) with 12-hour light/dark cycle. Free access to standard lab diet [MFG (Oriental Yeast Co., Ltd., Japan)] and autoclaved tap water in bottles were granted. All aspects of this work including housing, experimentation, and animal disposal were performed in general accordance with the “Guide for the Care and Use of Laboratory Animals: Eighth Edition” (National Academies Press, Washington, D.C., 2011) in our AAALAC-accredited laboratory animal facility. In addition, the animal care and use protocol was reviewed and approved by the IACUC at Eurofins Panlabs Taiwan, Ltd.
The tumor volumes, body weights, mortality, and signs of overt toxicity were monitored and recorded twice weekly for 100 days. Tumor growth inhibition was calculated as T/C (treatment/control)×100%. A T/C value≤42% compared to that of the vehicle control group was considered significant anti-tumor activity. Two-way ANOVA followed by Bonferroni test was used to ascertain the statistically significant significance of groups compared to respective vehicle control (*p<0.05).

[3] = Body weight in male BALB/c nude mice bearing HPAC established tumors; conditions: QW x 4, ADC (OBI-999) and OBI-888 10 mg/kg IV, MMAE 0.191 mg/kg IP; for Body weight: individual animals; for Body Weight (g), Mean: group mean

CC[C@H](C)[C@@H]([C@@H](CC(=O)N1CCC[C@H]1[C@H](OC)[C@@H](C)C(=O)N[C@H](C)[C@@H](O)c1ccccc1)OC)N(C)C(=O)[C@@H](NC(=O)[C@@H](NC)C(C)C)C(C)C [MMAE, monomethyl auristatin E]
Body Weight (g), Mean ([1]; 0.057 mg/kg × 6, IV once weekly, Day 53, group mean): 25.3 g
Body Weight (g), Mean ([1]; 0.057 mg/kg × 6, IV once weekly, Day 56, group mean): 25.2 g
Body Weight (g), Mean ([1]; 0.057 mg/kg × 6, IV once weekly, Day 60, group mean): 26.5 g
Body Weight (g), Mean ([1]; 0.057 mg/kg × 6, IV once weekly, Day 63, group mean): 26.5 g
Body Weight (g), Mean ([1]; 0.057 mg/kg × 6, IV once weekly, Day 67, group mean): 26.8 g
Body Weight (g), Mean ([1]; 0.057 mg/kg × 6, IV once weekly, Day 70, group mean): 26.5 g
Body Weight (g), Mean ([1]; 0.057 mg/kg × 6, IV once weekly, Day 77, group mean): 26.3 g
Body Weight (g), Mean ([1]; 0.057 mg/kg × 6 IV once weekly, Day 12, mean of 6 mice): 24.8 g
Body Weight (g), Mean ([1]; 0.057 mg/kg × 6 IV once weekly, Day 15, mean of 6 mice): 25.5 g
Body Weight (g), Mean ([1]; 0.057 mg/kg × 6 IV once weekly, Day 22, mean of 6 mice): 25.5 g
Body Weight (g), Mean ([1]; 0.057 mg/kg × 6 IV once weekly, Day 26, mean of 6 mice): 25.2 g
Body Weight (g), Mean ([1]; Gr. 11, 0.057 mg/kg × 6 IV once weekly, Day 29, group mean): 25.3 g
Body Weight (g), Mean ([1]; Gr. 11, 0.057 mg/kg × 6 IV once weekly, Day 33, group mean): 25.3 g
Body Weight (g), Mean ([1]; Gr. 11, 0.057 mg/kg × 6 IV once weekly, Day 36, group mean): 25.7 g
Body Weight (g), Mean ([1]; Gr. 11, 0.057 mg/kg × 6 IV once weekly, Day 40, group mean): 25.8 g
Body Weight (g), Mean ([1]; Gr. 11, 0.057 mg/kg × 6 IV once weekly, Day 43, group mean): 25.2 g
Body Weight (g), Mean ([1]; Gr. 11, 0.057 mg/kg × 6 IV once weekly, Day 46, group mean): 25.2 g
Body Weight (g), Mean ([1]; Gr. 11, 0.057 mg/kg × 6 IV once weekly, Day 49, group mean): 25.5 g
Body Weight Day 22, Mean [2]: 24.1 g
Body Weight Day 29, Mean [2]: 25.3 g
Body Weight Day 39, Mean [2]: 25.7 g
Body Weight Day 43, Mean [2]: 25.7 g
Body Weight Day 46, Mean [2]: 26.3 g
Body Weight Day 53, Mean [2]: 26.6 g
Body weight ([3]; Day 0): 24.3 g and 24.8 g and 24.5 g
Body weight ([3]; Day 4): 24.9 g and 23.7 g
Body weight ([3]; Day 7): 25.2 g
Body Weight (g), Mean ([3]; Day 9): 24.3 g
Body weight ([3]; Day 9): 24.9 g (2×) and 25.9 g and 23.5 g
Body Weight (g), Mean ([3]; Day 10): 25.5 g
Body weight ([3]; Day 10): 25.9 g and 26.3 g and 25.3 g and 24.1 g
Body Weight (g), Mean ([3]; Day 14): 25.3 g
Body weight ([3]; Day 14): 25.7 g and 26.2 g and 24.5 g
Body Weight (g), Mean ([3]; Day 17): 24.6 g
Body weight ([3]; Day 17): 24.5 g and 25.3 g
Body Weight (g), Mean ([3]; Day 21): 25.2 g
Body weight ([3]; Day 21): 25.6 g and 26.2 g and 24.7 g and 25.7 g
Body Weight (g), Mean ([3]; Day 24): 24.9 g
Body weight ([3]; Day 24): 24.8 g and 25.7 g and 24.9 g and 25.6 g and 23.7 g
Body weight ([3]; Day 28): 26.2 g and 25.3 g and 24.9 g and 26.3 g and 24.1 g
Body Weight (g), Mean ([3]; Day 31): 25.2 g
Body weight ([3]; Day 31): 25.2 g and 26.4 g and 24.1 g
Body weight ([3]; Day 35): 26.9 g and 25.6 g (2×) and 24.5 g
Body Weight (g), Mean ([3]; Day 37): 25.7 g
Body weight ([3]; Day 37): 25.3 g and 25.5 g and 27.1 g
